Results published in ChEMBL document CHEMBL4219047, “Optimization of peptide-based polyagonists for treatment of diabetes and obesity” (Bioorg Med Chem, 2018).

Protein sequences, listed by entry. Tags and fused reporters are not part of them.
UniProt P43220, whole entry: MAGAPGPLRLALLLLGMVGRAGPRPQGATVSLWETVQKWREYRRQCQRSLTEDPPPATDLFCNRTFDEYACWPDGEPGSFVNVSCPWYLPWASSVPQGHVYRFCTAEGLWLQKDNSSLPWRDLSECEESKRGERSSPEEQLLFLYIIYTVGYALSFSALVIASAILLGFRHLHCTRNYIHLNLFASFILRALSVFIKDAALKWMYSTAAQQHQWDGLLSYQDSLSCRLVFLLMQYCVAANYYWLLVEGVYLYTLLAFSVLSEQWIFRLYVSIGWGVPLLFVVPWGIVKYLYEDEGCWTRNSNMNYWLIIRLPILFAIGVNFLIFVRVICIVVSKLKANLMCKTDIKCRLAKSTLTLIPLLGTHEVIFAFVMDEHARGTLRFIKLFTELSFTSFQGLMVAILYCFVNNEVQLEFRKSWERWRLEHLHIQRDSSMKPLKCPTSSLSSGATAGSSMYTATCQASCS

Target: Glucagon-like peptide 1 receptor (Homo sapiens, UniProt P43220)
Assay: Agonist activity at human GLP1 receptor expressed in CHO cells assessed as increase in cAMP level by TR-FRET assay relative to GLP1
Assay type: functional, cell-based

GLUCAGON was tested. Which Activity did it give?
The Activity was 0.2%.
